Key:
[1] = brain and plasma concentration after 21 days of repeat administration, rat cuprizone model; conditions: 21 days repeat administration 30 or 100 μg/kg, 4 hours post-final dose
[2] = tissue distribution (brain and plasma AUC) after single PO administration; type: in vivo; conditions: 100 μg/kg PO single, male C57BL/6 mouse, AUC 0-24 hr
primary OPC cultures = test: oligodendrocyte progenitor cell (OPC) differentiation assay; conditions: read-out: oligodendrocyte differentiation EC50; 5 days, MBP staining normalized to total cell count

SMILES: CC(C)c1c(O)ccc(Cc2c(Cl)cc(OCC(=O)O)cc2Cl)c1F
- brain exposure of active compound compared to prodrug [1]: enhanced brain exposure
- Brain AUC [2]: 73.9 ng·h/mL
- EC50 (primary OPC cultures): 1.4 nM

Reference: patent US12637413B2, “Fatty acid amide hydrolase (FAAH) cleavable prodrugs of thyromimetics and combination with peripherally restricted FAAH inhibitors” (Autobahn Therapeutics, Inc., priority 2021, dated 2026)
